The test has as its target Human immunodeficiency virus type 1 reverse transcriptase (Human immunodeficiency virus 1, UniProt Q72547). Kind of test: Inhibition of HIV1 reverse transcriptase assessed as reduction in biotin-labeled dUTP incorporation into DNA using poly(A) x oligo(dT)15 as template/primer after 1 hr by ELISA. In a few lines: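 Wild-type HIV-1 RT was assayed with a plate-bound homopolymer poly[A]·oligo[dT]₁₅ template/primer and biotin-dUTP, following the Roche RT kit protocol. Incorporated biotin-dUTP, a measure of RT activity, was quantified by ELISA. Percentage inhibition was calculated by formula, and IC₅₀ is the concentration inhibiting biotin-dUTP incorporation by 50%.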

Data on one compound can be found in ChEMBL document CHEMBL3414545, “Fused heterocycles bearing bridgehead nitrogen as potent HIV-1 NNRTIs. Part 4: design, synthesis and biological evaluation of novel imidazo[1,2-a]pyrazines” (Eur J Med Chem, 2015).

Structures are written as SMILES.

The term IC50 denotes the concentration that gives 50% inhibition. Take `Cc1cc(C#N)cc(C)c1Oc1nc(Nc2ccc(C#N)cc2)nc(N)c1Br` [ETRAVIRINE]: the half-maximal inhibitory concentration (IC50) was 130 nM.
